Assay results taken from PubChem BioAssay (NCI).
The entries are a selection whose mix differs from that of the whole data set.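 Single-dose data. Exposure time 48 hours. Values below 10 considered active.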 Activity calls are given as the source filed them.

Legend:
Assay in all cases: NCI-60 one-dose screen, 48 h (100 = growth as untreated, 0 = no growth, -100 = all killed)
Conditions in all cases: 10 µM
[1] = system: SK-MEL-2 melanoma
[2] = system: EKVX NSCLC
[3] = system: SN12C renal
[4] = system: UO-31 renal
[5] = system: TK-10 renal
[6] = system: ACHN renal
[7] = system: CAKI-1 renal
[8] = system: A498 renal
[9] = system: HL-60(TB) leukemia
[10] = system: CCRF-CEM leukemia
[11] = system: MOLT-4 leukemia
[12] = system: SR leukemia
[13] = system: RPMI-8226 leukemia
[14] = system: OVCAR-8 ovarian
[15] = system: OVCAR-5 ovarian
[16] = system: OVCAR-4 ovarian
[17] = system: SK-OV-3 ovarian
[18] = system: OVCAR-3 ovarian
[19] = system: HS 578T breast
[20] = system: IGROV1 ovarian

| Compound | growth [1] | growth [2] | growth [3] | growth [4] | growth [5] | growth [6] | growth [7] | growth [8] | growth [9] | growth [10] | growth [11] | growth [12] | growth [13] | growth [14] | growth [15] | growth [16] | growth [17] | growth [18] | growth [19] | growth [20] |
| --- | --- | --- | --- | --- | --- | --- | --- | --- | --- | --- | --- | --- | --- | --- | --- | --- | --- | --- | --- | --- |
| O=C(O)c1ccc(N(CCCl)CCCl)cc1 | inactive: 96.8% | inactive: 109% | inactive: 111% | inactive: 101% | inactive: 107% | inactive: 106% | inactive: 96.4% | inactive: 87.4% | inactive: 99.9% | inactive: 96.3% | inactive: 93.6% | inactive: 87.6% | inactive: 107% | inactive: 102% | inactive: 107% | inactive: 114% | inactive: 114% | inactive: 122% | inactive: 121% | – |
| [O-][n+]1onc(-c2ncon2)c1-c1ncon1 | inactive: 97.3% | inactive: 99.8% | inactive: 102% | inactive: 100% | inactive: 73.1% | active: -71.9% | inactive: 94.4% | inactive: 95.5% | inactive: 47.3% | inactive: 43% | inactive: 22.4% | active: -4.66% | inactive: 49.5% | inactive: 111% | inactive: 106% | inactive: 108% | inactive: 125% | active: -17.7% | inactive: 96.3% | inactive: 112% |
| O=C(O)Cc1c[nH]c2ccc(N(CCCl)CCCl)cc12 | inactive: 122% | inactive: 103% | inactive: 89.9% | inactive: 102% | inactive: 108% | inactive: 100% | inactive: 77.7% | inactive: 90.4% | inactive: 127% | inactive: 90.2% | inactive: 103% | inactive: 86.1% | inactive: 99.6% | inactive: 112% | inactive: 98.4% | inactive: 111% | inactive: 96.6% | inactive: 108% | inactive: 96.9% | inactive: 92.6% |
| BrCCN(CCBr)c1ccc2c(c1)Cc1ccccc1-2 | inactive: 46.9% | inactive: 63% | inactive: 36.3% | inactive: 25.7% | inactive: 70.2% | inactive: 11% | active: -2.92% | inactive: 17.5% | active: 8.5% | inactive: 19.7% | active: 8.3% | active: -8.12% | inactive: 24% | inactive: 31.1% | inactive: 76.2% | inactive: 59.9% | inactive: 44.2% | inactive: 35.1% | inactive: 91.6% | inactive: 41.1% |
| Cc1ccc(NC2(C(N)=O)CCN(Cc3ccccc3)CC2)cc1 | inactive: 108% | inactive: 94.5% | inactive: 99.7% | inactive: 76.3% | inactive: 111% | inactive: 106% | inactive: 95% | – | inactive: 111% | inactive: 106% | inactive: 96.1% | – | inactive: 101% | inactive: 103% | inactive: 99.7% | inactive: 97% | inactive: 109% | inactive: 117% | inactive: 102% | inactive: 102% |
| N#CC1(Nc2ccc(Cl)cc2)CCN(Cc2ccccc2)CC1 | inactive: 89.2% | inactive: 76.1% | inactive: 69.5% | inactive: 60.8% | inactive: 73.1% | inactive: 53.1% | inactive: 38.6% | – | inactive: 63.6% | – | inactive: 75.7% | – | inactive: 76.9% | inactive: 75.7% | inactive: 59.5% | inactive: 78% | inactive: 99.6% | inactive: 88.4% | inactive: 90.1% | inactive: 67.3% |
| COc1cc(N(CCCl)CCCl)cc(OC)c1OC | inactive: 101% | inactive: 98.3% | inactive: 86.9% | inactive: 87.7% | inactive: 114% | inactive: 93.8% | – | inactive: 102% | inactive: 98.7% | inactive: 81.2% | inactive: 75.7% | inactive: 72.1% | inactive: 88.1% | inactive: 81.5% | inactive: 116% | inactive: 120% | inactive: 90.1% | inactive: 88.3% | inactive: 103% | inactive: 87.9% |
| Cc1cc(O)c(CN(CC(C)Cl)CC(C)Cl)cc1C (centres undefined) | inactive: 105% | inactive: 110% | inactive: 106% | inactive: 82.3% | inactive: 114% | inactive: 101% | inactive: 92.6% | inactive: 129% | inactive: 99.2% | inactive: 98.9% | inactive: 91.5% | inactive: 91.5% | inactive: 107% | inactive: 99.2% | inactive: 106% | inactive: 107% | inactive: 93.8% | inactive: 109% | inactive: 108% | inactive: 106% |
| Cc1ccc2oc(=O)cc(CN(CCCl)CCCl)c2c1 | inactive: 105% | inactive: 112% | inactive: 94.2% | inactive: 73.9% | inactive: 91.3% | inactive: 87% | inactive: 81.2% | inactive: 91% | inactive: 84.5% | inactive: 77.7% | inactive: 69% | inactive: 71.2% | inactive: 96.8% | inactive: 83.4% | inactive: 102% | inactive: 97.5% | inactive: 94.6% | inactive: 96.2% | inactive: 99.5% | inactive: 72.8% |
| CC(=O)N(c1ccccc1)C1CCNCC1 | inactive: 100% | inactive: 96.8% | inactive: 111% | inactive: 91% | inactive: 106% | inactive: 122% | inactive: 101% | inactive: 88.4% | inactive: 109% | inactive: 65.3% | inactive: 94.5% | inactive: 115% | inactive: 103% | inactive: 111% | inactive: 110% | – | inactive: 118% | inactive: 124% | inactive: 93.2% | inactive: 122% |
| Cc1ccc(N(CCCl)CCCl)cc1 | inactive: 131% | inactive: 96.4% | inactive: 46% | inactive: 39.3% | inactive: 90.6% | inactive: 19.1% | – | inactive: 104% | inactive: 31% | inactive: 40.6% | inactive: 32.2% | inactive: 14.9% | inactive: 89.9% | inactive: 76.5% | inactive: 107% | inactive: 85.8% | inactive: 76.6% | inactive: 104% | – | inactive: 82.3% |
| COc1cccc(N(CCCl)CCCl)c1OC | inactive: 99.5% | inactive: 92.8% | inactive: 53.9% | inactive: 89% | inactive: 73.4% | inactive: 22.6% | inactive: 10.1% | – | inactive: 53.6% | inactive: 49.1% | inactive: 34% | inactive: 31.7% | inactive: 101% | inactive: 78.1% | inactive: 97.7% | inactive: 94% | inactive: 94.3% | inactive: 103% | inactive: 96.5% | inactive: 84.9% |
| NC(=O)C1(Nc2ccccc2)CCNCC1 | inactive: 97.5% | inactive: 107% | inactive: 106% | inactive: 85.8% | inactive: 107% | inactive: 105% | inactive: 102% | – | inactive: 92.2% | inactive: 94.9% | inactive: 91.5% | – | inactive: 105% | inactive: 103% | inactive: 94.5% | inactive: 111% | inactive: 106% | inactive: 108% | inactive: 117% | inactive: 112% |
| O=P1(N(CCCl)CCCl)SCCCS1 | inactive: 129% | inactive: 105% | inactive: 116% | inactive: 111% | inactive: 105% | inactive: 124% | inactive: 123% | inactive: 77.1% | inactive: 111% | inactive: 99% | inactive: 96% | inactive: 92.9% | inactive: 115% | inactive: 105% | inactive: 115% | inactive: 109% | inactive: 112% | inactive: 118% | inactive: 99% | – |
| c1ccc(CN2CCC(Nc3ccccc3)CC2)cc1 | inactive: 102% | inactive: 91.6% | inactive: 105% | inactive: 89.8% | inactive: 105% | inactive: 98.2% | inactive: 91.1% | – | inactive: 109% | inactive: 98.6% | inactive: 93.9% | inactive: 86.6% | inactive: 98.1% | inactive: 127% | inactive: 96.5% | inactive: 105% | inactive: 102% | inactive: 109% | inactive: 114% | inactive: 102% |
| NC(Cc1ccccc1N(CCCl)CCCl)C(=O)O (centres undefined) | inactive: 76.4% | inactive: 89.9% | inactive: 69.2% | inactive: 88.9% | inactive: 99.2% | inactive: 57.2% | inactive: 24.7% | inactive: 77.1% | inactive: 12.2% | inactive: 10.7% | inactive: 41.1% | active: 0.5% | inactive: 63.6% | inactive: 84.2% | inactive: 105% | inactive: 96.3% | inactive: 76.5% | inactive: 103% | inactive: 105% | – |
| N#CC(C#N)=Cc1ccc(N(CCCl)CCCl)cc1 | inactive: 101% | inactive: 92.9% | inactive: 84.7% | inactive: 81.3% | inactive: 98.2% | inactive: 83.2% | inactive: 53.1% | inactive: 105% | inactive: 65.4% | inactive: 69.2% | inactive: 51.5% | inactive: 26.9% | inactive: 106% | inactive: 82.2% | inactive: 98.9% | inactive: 82.5% | inactive: 70% | inactive: 88.6% | inactive: 95% | inactive: 75.2% |
